{
  "sequences": {"note": "Chains of the proteins cited; added tags and fusions are not shown.", "UniProt Q92847, whole entry": "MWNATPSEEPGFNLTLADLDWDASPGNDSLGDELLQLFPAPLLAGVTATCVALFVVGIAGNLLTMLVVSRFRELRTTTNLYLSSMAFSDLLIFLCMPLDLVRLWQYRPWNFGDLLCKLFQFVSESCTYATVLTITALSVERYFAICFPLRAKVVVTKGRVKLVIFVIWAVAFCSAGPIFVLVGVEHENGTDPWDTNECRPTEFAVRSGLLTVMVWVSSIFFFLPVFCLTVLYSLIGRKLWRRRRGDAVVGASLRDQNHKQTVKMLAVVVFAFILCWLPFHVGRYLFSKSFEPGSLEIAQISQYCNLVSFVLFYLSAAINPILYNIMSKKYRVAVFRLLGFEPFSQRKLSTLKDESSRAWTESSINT"},
  "source": "patent US6514709B1",
  "about": "(dated 2003)",
  "key": {"[1]": {"molecular_target": "T1, human growth hormone secretagogue receptor type 1a (hGHSR1A) (Homo sapiens, UniProt Q92847)", "experiment": "Aequorin luminescence in hGHSR1A cells (WALLAC MICROBETA JET)", "type": "cell-based", "conditions": "100 nM ghrelin, no BAPTA"}, "[2]": {"molecular_target": "T1, human growth hormone secretagogue receptor type 1a (hGHSR1A)", "experiment": "Fluo-4 fluorescence calcium response in hGHSR1a cells (VIPR)", "type": "cell-based", "conditions": "100 nM ghrelin, no BAPTA"}},
  "data": [
    {"substance": "ghrelin", "values": [
      {"measurement": "time to peak light emission", "setting": "[1]", "value": 3, "unit": "s"},
      {"measurement": "time until light emission essentially gone", "setting": "[1]", "value": 30, "unit": "s"},
      {"measurement": "time to complete decay to baseline", "setting": "[2]", "value": "about 100 seconds"},
      {"measurement": "time to maximum fluorescence", "setting": "[2]", "value": "about 15 sec"}
    ]}
  ]
}
